# Target: endogenous DOR (Rattus norvegicus, UniProt P33533)
# Sequences of proteins named here, by UniProt entry; tags and fusion partners are left off.
# UniProt P33533, whole entry: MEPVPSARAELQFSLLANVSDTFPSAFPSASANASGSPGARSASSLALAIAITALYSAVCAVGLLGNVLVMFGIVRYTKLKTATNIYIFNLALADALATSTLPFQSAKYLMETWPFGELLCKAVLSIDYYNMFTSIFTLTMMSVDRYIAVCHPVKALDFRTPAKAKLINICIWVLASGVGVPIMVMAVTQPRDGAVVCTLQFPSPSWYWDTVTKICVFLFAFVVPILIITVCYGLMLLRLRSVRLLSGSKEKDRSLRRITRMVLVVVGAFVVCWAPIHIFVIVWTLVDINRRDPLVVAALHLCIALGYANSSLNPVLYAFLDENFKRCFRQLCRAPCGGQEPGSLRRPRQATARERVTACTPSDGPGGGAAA
# Conditions: primary hippocampal cultures expressing C99; 1 μM DADLE, 1 h
smiles,measurement,value
"CC(C)C[C@@H](NC(=O)[C@H](Cc1ccccc1)NC(=O)CNC(=O)[C@@H](C)NC(=O)[C@@H](N)Cc1ccc(O)cc1)C(=O)O [DADLE, [D-Ala^2, D-Leu^5]-enkephalin]",secreted Aβ,increases Aβ production
